Assay results from patent publication US20240343733A1, “COMPOUNDS FOR TARGETING DEGRADATION OF IRAK4 PROTEINS” (BIOGEN MA INC., priority 2021, published 2024).

Protein sequences, listed by entry. Tags and fused reporters are not part of them.
UniProt Q9NWZ3, whole entry: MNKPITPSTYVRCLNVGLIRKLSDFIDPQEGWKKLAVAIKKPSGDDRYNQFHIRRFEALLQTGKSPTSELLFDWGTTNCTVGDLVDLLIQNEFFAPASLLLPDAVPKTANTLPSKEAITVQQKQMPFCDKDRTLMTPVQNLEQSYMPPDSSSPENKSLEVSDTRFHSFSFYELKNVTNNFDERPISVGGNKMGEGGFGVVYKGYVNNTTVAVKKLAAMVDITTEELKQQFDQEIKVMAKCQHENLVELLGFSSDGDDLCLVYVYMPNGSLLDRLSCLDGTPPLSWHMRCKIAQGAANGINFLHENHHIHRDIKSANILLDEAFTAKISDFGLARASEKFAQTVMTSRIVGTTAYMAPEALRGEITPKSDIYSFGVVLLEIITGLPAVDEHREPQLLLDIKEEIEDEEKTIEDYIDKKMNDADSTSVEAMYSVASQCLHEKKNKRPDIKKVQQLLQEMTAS

Target: IRAK4 (Homo sapiens, UniProt Q9NWZ3)
Assay: IRAK4 Degradation Assay, HiBiT Method
Settings: 293T cells expressing HiBiT-tagged IRAK4, 6 hours

CC(C)Oc1cc2nn([C@H]3CC[C@H](CNC4CCN(c5ncc(C6CCC(=O)NC6=O)cc5F)CC4)CC3)cc2cc1C(=O)Nc1cccn(C2CC2)c1=O (some centres unmarked) [Example 125, N-(1-cyclopropyl-2-oxo-1,2-dihydropyridin-3-yl)-2-((1r,4r)-4-(((1-(5-(2,6-dioxopiperidin-3-yl)-3-fluoropyridin-2-yl)piperidin-4-yl)amino)methyl)cyclohexyl)-6-isopropoxy-2H-indazole-5-carboxamide]
DC50: < 10 nM

CC(C)Oc1cc2nc(C3CCN(CC(=O)N4CCN(c5cc6c(cc5F)c(N5CCC(=O)NC5=O)nn6C)CC4)CC3)cn2cc1C(=O)Nc1cccc(C(F)(F)F)n1
DC50: 10 to 100 nM
